Laboratory results: PMC10647531, “Effects of Icariin and Its Metabolites on GPCR Regulation and MK-801-Induced Schizophrenia-Like Behaviors in Mice” (Molecules, 2023)

Amino acid sequences for entries named in this document (tags omitted). A change or cut given only in a name is not applied to a line headed by its entry.
UniProt P27338, whole entry: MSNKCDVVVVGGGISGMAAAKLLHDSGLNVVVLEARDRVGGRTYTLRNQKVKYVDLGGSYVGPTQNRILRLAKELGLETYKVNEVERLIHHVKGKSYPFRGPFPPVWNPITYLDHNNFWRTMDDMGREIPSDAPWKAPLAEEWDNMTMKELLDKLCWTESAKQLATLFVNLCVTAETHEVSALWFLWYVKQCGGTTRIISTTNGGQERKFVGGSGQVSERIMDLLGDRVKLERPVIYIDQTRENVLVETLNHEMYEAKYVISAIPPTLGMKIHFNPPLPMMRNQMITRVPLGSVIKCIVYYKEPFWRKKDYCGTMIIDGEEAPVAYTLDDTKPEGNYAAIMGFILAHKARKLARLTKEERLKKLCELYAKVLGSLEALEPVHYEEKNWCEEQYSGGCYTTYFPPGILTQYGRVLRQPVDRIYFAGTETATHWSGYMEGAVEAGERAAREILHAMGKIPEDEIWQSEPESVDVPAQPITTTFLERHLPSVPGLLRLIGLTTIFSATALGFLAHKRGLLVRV
UniProt P35462, whole entry: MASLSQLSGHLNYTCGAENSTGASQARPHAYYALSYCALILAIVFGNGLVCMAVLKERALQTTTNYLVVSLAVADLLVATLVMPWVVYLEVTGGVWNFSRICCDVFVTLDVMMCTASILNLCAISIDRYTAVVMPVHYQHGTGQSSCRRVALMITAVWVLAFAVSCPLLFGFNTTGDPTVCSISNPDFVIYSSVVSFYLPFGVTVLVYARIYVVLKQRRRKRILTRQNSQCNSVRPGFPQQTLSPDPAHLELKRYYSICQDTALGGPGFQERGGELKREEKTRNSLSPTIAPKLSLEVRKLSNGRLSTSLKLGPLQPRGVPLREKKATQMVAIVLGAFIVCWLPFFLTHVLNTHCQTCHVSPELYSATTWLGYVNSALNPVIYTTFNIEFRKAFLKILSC
UniProt P21397, whole entry: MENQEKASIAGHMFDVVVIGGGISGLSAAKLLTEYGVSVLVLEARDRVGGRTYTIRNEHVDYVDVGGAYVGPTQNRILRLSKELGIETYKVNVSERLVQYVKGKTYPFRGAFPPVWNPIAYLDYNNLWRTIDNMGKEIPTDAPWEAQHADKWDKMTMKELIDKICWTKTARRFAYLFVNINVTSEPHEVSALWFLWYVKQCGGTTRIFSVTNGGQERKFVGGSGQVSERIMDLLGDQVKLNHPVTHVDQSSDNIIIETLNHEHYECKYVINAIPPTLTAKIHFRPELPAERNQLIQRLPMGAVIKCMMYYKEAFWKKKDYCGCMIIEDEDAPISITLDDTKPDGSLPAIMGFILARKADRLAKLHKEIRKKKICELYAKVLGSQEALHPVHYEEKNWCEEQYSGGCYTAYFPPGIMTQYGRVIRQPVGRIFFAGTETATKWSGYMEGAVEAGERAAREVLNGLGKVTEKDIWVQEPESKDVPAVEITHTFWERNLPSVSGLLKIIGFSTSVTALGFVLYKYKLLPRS

How the values were obtained:
hMAO-B = hMAO-B (Homo sapiens, UniProt P27338); experiment: In vitro hMAO-inhibitory assay (MAO-Glo), hMAO-B; type: biochemical; conditions: mean ± SD of triplicate experiments
Text: (§1) A homogeneous luminescent assay using the MAO-Glo™ assay kit (Promega, Madison, WI, USA) was used to evaluate the hMAO-inhibitory activity of icariin and its metabolites according to the manufacturer’s protocol.

[1] = cited from earlier work
[2] = target: dopamine D3 receptor (D3R) (Homo sapiens, UniProt P35462); experiment: FRET-based cAMP agonist effect assay (D3R); conditions: read-out: EC50, agonist effect assay (D3R), CHO-K1 hD3R
hMAO-A = hMAO-A (Homo sapiens, UniProt P21397); experiment: In vitro hMAO-inhibitory assay (MAO-Glo), hMAO-A; type: biochemical; conditions: mean ± SD of triplicate experiments
Text: as §1

Human D3R = target: T1, Human D3R (Homo sapiens, UniProt P35462); conditions: [3H]methyl-spiperone competition; read-out: IC50, radioligand binding assay (D3R)
T1 construct: expressed in transfected cells; host or cells: CHO-K1 (membrane homogenates)
Experimental: Next, 10 μM (f.c.) (+)-butaclamol (for D3R) and 1 μM (f.c.) atropine (for M2R) were used to detect nonspecific binding in the respective assays. The binding affinity of a test compound was calculated as the inhibition (%) of control (radioligand)-specific binding.

## icariside II
hMAO-B
  IC50: > 500 µM
[1]
  blood-brain barrier penetration: could penetrate the blood-brain barrier (BBB) readily
[2]
  EC50: 13.3 µM
hMAO-A
  IC50: > 500 µM
Human D3R
  IC50: 19.5 µM
